Measured values: PMC7486240 (Cell host & microbe, 2020)

Target: HsmR (Clostridioides difficile, UniProt A0A9R0BIW1)
Assay: biochemical

Q: Which Kd does the source give for `C=CC1=C(C)C2=Cc3c(C=C)c(C)c4[n]3[Fe]([Cl])[n]3c(c(C)c(CCC(=O)O)c3=CC3=NC(=C4)C(C)=C3CCC(=O)O)=CC1=N2` [heme] here?
A: Its Kd is 6.6 ± 1.1 µM.
